ChEMBL document CHEMBL6134903, “Challenging triple negative breast cancer through HDAC6 selective inhibition: Novel cap-group identification, structure-activity relationships, computational and biological studies” (Eur J Med Chem, 2025)

Amino acid sequences for entries named in this document (tags omitted).
UniProt Q13547, whole entry: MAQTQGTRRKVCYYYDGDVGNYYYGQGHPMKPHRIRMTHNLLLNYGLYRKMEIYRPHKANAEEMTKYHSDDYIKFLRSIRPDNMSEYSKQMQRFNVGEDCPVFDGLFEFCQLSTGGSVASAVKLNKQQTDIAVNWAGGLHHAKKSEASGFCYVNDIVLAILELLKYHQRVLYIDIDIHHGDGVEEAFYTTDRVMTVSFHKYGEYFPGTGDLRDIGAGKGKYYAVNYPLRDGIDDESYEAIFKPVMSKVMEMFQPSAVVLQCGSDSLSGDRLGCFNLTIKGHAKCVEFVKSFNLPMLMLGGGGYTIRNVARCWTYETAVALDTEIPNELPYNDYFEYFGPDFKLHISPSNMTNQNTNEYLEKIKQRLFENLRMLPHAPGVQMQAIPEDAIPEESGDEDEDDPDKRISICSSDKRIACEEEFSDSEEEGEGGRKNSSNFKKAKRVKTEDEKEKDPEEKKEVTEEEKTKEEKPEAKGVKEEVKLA

Target: Histone deacetylase 1 (Homo sapiens) (UniProt Q13547)
Conditions: Sf9, dose 10.0 µM, time 30.0 min

| Compound | inhibition |
| --- | --- |
| O=C(NO)c1ccc(CN2CN(c3ccccc3)C3(CCN(C(=O)c4ccc(-c5ccccc5)o4)CC3)C2=O)c(F)c1 | 48% |
| O=C(NO)c1cc(F)c(CN2CN(c3ccccc3)C3(CCNCC3)C2=O)c(F)c1 | 39% |
| O=C(NO)c1ccc(CN2CN(c3ccccc3)C3(CCN(C(=O)NCc4ccco4)CC3)C2=O)c(F)c1 | 41% |
| O=C(NO)c1ccc(CN2CN(c3ccccc3)C3(CCN(Cc4ccc(-c5ccccc5)o4)CC3)C2=O)c(F)c1 | 60% |
